Assay: Spectroscopic properties of fluorochrome conjugates in methanol
Type: physicochemical
Conditions: for λmax,em: emission maximum; for λmax,exc: excitation maximum

Substance | λmax,em [nm] | λmax,exc [nm]
Cy5 bis-propionamido-phenylarsineoxide | 665 | 647
Cy3 bis-propionamido-phenylarsineoxide | 566 | 552
